Source: PMC7343696 (2020)
Structures can show the parent of a compound that is named as a salt. Where two headings read alike, the source gives them in different places. Marks after values point to notes of the source that are not given here. Each block holds one compound with its values, some of them ahead of it.

Amino acid sequences for entries named in this document (tags omitted).
UniProt P23975, whole entry: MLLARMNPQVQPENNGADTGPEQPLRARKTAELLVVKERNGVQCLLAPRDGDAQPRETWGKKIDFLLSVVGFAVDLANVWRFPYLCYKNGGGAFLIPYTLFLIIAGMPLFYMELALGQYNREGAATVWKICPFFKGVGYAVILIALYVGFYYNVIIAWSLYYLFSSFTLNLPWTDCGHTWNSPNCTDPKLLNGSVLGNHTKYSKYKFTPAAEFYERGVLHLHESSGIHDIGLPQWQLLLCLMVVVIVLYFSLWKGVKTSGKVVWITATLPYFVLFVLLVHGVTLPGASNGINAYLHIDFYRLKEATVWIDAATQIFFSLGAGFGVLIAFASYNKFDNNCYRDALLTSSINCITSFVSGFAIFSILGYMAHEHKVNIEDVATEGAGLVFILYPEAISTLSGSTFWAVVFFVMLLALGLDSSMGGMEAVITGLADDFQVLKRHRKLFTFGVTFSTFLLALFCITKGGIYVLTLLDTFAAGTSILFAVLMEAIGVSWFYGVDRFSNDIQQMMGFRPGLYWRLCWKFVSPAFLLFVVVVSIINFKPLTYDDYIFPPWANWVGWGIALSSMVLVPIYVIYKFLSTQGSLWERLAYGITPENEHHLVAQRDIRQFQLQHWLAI

Columns and labels:
[1] = system: 5HT uptake in (fore) brain or hypothalamic synaptosomes; details: mice, i.p., assay type III; ref (5); cited from earlier work
[2] = system: 5HT uptake in (fore) brain or hypothalamic synaptosomes; details: rats, oral, assay type III; ref (4); cited from earlier work
[3] = target: human SK-N-SH neuroblastoma cells (uptake via NET) (Homo sapiens, UniProt P23975); assay: [125I]MIBG uptake inhibition in cultured SK-N-SH neuroblastoma cells; type: cell-based

SMILES: Fc1ccc([C@@H]2CCNC[C@H]2COc2ccc3c(c2)OCO3)cc1 [Paroxetine, paroxetine-HCl]
- 50 % effective dose [1]: 1 - 10^c mg/kg
- 50 % effective dose [2]: 1.9^c mg/kg

SMILES: CN(C)CCCN1c2ccccc2CCc2ccccc21
- IC50 [3]: 82 nM

- Effect on MIBG uptake in SK-N-SH neuroblastoma cells at one concentration (in words) ([3]; inhibitor 10^−7 M): negligible effect
SMILES: CN(C)CCCC1(c2ccc(F)cc2)OCc2cc(C#N)ccc21 (stereo not shown) [Citalopram, citalopram-HBr]
